# Apparent affinities of Ab-14 variants for a coronavirus HR2 peptide

Reference: Engelhart et al. 2022, doi:10.1038/s41597-022-01779-4. File: FLAb, binding data.

All variants were tested on one target, the spike HR2 peptide PDVDLGDISGINAS (SARS-CoV-2).

Parent: Ab-14, a human scFv built as VH, the linker GGGGSGGGGSGGGGS, VL. Only the CDRs of the heavy chain vary.
VH: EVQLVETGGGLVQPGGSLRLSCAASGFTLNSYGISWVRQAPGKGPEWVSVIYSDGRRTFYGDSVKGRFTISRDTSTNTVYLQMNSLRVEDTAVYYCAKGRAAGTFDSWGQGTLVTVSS
VL: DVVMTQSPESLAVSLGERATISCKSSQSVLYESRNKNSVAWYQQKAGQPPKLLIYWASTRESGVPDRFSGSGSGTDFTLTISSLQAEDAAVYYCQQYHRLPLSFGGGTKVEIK

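The parent was found by panning a naive human phage display library on the peptide. Library AAYL49 holds single substitutions and randomly drawn double and triple substitutions in the CDRs. The scFvs were displayed on barcoded MATa yeast, the peptide on MATalpha yeast. Mating (16 h, 30 °C) was followed by selection of diploids and sequencing of their barcodes. Read counts were normalised to the haploid input and turned into Kd by a linear fit to BCL2-family pairs of known affinity, for each replicate. There are three technical replicates.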

Substitutions are numbered in sequence along the VH above, starting at 1 (not Kabat).
Kd is apparent (estimated from mating counts) and averaged on the log scale over replicates with a signal. Smaller is tighter.
A pair that was not seen in any replicate is written "nd"; this usually means weak binding, but a binder can also be missed.

The variant S35N/R57E/S107I gave nd (0 of 3 replicates; controls 0 of 9).
The variant S31I/G33H/D54W gave nd (0 of 3 replicates; controls 0 of 9).
The variant N30C/D54T/A101C gave nd (0 of 3 replicates; controls 0 of 9).
The variant T28C/Y60I/G103S gave 65 µM (2 of 3 replicates; controls 1 of 9).
The variant N30R/R57K/F105K gave 66 nM (3 of 3 replicates; controls 1 of 9).
The variant T58G/S63L/A102S gave nd (0 of 3 replicates; controls 0 of 9).
The variant R57W/G103A/T104S gave nd (0 of 3 replicates; controls 0 of 9).
The variant S35Y/F59N/S63K gave nd (0 of 3 replicates; controls 0 of 9).
The variant G26L/F27C/Y32Q gave nd (0 of 3 replicates; controls 0 of 9).
The variant R57T/G61K gave 93 nM (3 of 3 replicates; controls 0 of 9).
The variant S35C/G55W/Y60M gave nd (0 of 3 replicates; controls 0 of 9).
The variant S35L/G99W gave 4.6 µM (1 of 3 replicates; controls 0 of 9).
The variant G26A/D54E/S107R gave nd (0 of 3 replicates; controls 0 of 9).
The variant L29S/I51M/Y52A gave 28 µM (2 of 3 replicates; controls 3 of 9).
The variant Y32E/T104C/D106W gave 23 nM (3 of 3 replicates; controls 4 of 9).
The variant T28S/I34H/R56T gave 710 nM (1 of 3 replicates; controls 1 of 9).
The variant Y32F/G33F/K65A gave 320 µM (1 of 3 replicates; controls 0 of 9).
The variant I34W/G99H/T104R gave 29 µM (2 of 3 replicates; controls 2 of 9).
The variant T28R/N30D/D62C gave nd (0 of 3 replicates; controls 1 of 9).
The variant T28R/F59Q gave 220 nM (3 of 3 replicates; controls 2 of 9).
The variant S63Y/A101Y gave 640 nM (3 of 3 replicates; controls 1 of 9).
The variant F27R/T58R/T104E gave 71 nM (1 of 3 replicates; controls 1 of 9).
The variant Y52R/S53F/G99S gave 510 nM (1 of 3 replicates; controls 1 of 9).
The variant G26V/S31I/G33M gave nd (0 of 3 replicates; controls 2 of 9).
The variant F27V/G33Y/R56W gave nd (0 of 3 replicates; controls 0 of 9).
The variant L29N/A101H/A102R gave 37 µM (1 of 3 replicates; controls 0 of 9).
The variant Y52R/Y60V/G103K gave nd (0 of 3 replicates; controls 2 of 9).
The variant F27S/F59C/S63H gave nd (0 of 3 replicates; controls 1 of 9).
The variant S53A/G55W/G61Q gave 820 nM (1 of 3 replicates; controls 0 of 9).
The variant F27R/V50L/G99D gave 11 µM (1 of 3 replicates; controls 0 of 9).
The variant I34C/G55S/Y60V gave 33 µM (3 of 3 replicates; controls 4 of 9).
The variant D54H/K65I gave nd (0 of 3 replicates; controls 0 of 9).
The variant I34L/V50A/A102M gave nd (0 of 3 replicates; controls 1 of 9).

The first 5 variants above that were never detected:

changes,Kd,replicates with signal,signal with controls
S35N/R57E/S107I,nd,0/3,0/9
S31I/G33H/D54W,nd,0/3,0/9
N30C/D54T/A101C,nd,0/3,0/9
T58G/S63L/A102S,nd,0/3,0/9
R57W/G103A/T104S,nd,0/3,0/9

Three control strains display no target. For library AAYL49, 15% of the pairings with them gave a signal, with a median of 11 µM and one signal in twenty below 680 nM, so weak values seen in few replicates may be background. Also given: how often the same scFv was detected with the empty control strains.
In this assay the parent's reference entry averaged 4.4 nM; its copy inside this library read 13 µM (one replicate of three).